The values below come from ChEMBL document CHEMBL4330111, “Optimization of N-benzyl-5-nitrofuran-2-carboxamide as an antitubercular agent” (Bioorg Med Chem Lett, 2019).

This data set can be described thus: in vitro. To be noted: monkey, Vero cells.

In the case of `O=C(NCc1ccccc1)c1ccc([N+](=O)[O-])o1`, the selectivity ratio is 33.
